Reference: PubChem BioAssay AID2718 (Broad Institute, 2010)
Only a part is listed here, and it is no random draw. Activity calls are given as the source filed them. Cut-off read from the data, not from the text of the source: active = inhibition above about 26% (passing the limit was not always enough); inconclusive = no clear call, values can overlap the other calls.

The chains behind the UniProt entries cited, without tags or fusion partners. Where a name states a change or a piece, a line headed by the entry shows the natural chain unless it says otherwise.
UniProt O15379: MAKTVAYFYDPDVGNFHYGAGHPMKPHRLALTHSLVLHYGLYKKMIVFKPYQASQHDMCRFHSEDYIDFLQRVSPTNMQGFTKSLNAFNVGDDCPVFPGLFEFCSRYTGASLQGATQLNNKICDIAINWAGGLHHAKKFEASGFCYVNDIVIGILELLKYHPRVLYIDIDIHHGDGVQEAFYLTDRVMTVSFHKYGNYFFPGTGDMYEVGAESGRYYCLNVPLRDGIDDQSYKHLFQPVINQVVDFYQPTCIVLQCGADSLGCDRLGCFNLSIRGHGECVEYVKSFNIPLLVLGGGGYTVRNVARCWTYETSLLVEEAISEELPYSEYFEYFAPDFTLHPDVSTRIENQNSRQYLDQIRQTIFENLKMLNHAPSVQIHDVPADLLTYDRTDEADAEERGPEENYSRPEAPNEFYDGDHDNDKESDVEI

biological target: Histone deacetylase 3 (Homo sapiens) (UniProt O15379); test: HDAC3 deacetylase inhibitors, primary screen, biochemical, fluorescence, cell-free homogeneous (AID 2718); conditions: recombinant HDAC3, fluorogenic peptide/trypsin coupled, at 8.3 µM, stronger effect = higher value

Structure (SMILES) | inhibition
Nc1ccc([As](=O)(O)c2ccc(N)cc2)cc1 | inactive: -6.07%
C[N+]1=C2C=CC=CC=C2SC12C([N+](=O)[O-])=CC([N+](=O)[O-])=C[C-]2[N+](=O)[O-] (stereo not given) | inactive: 1.01%
CCN(/C(=N/P(=O)(N1CCOCC1)N1CCOCC1)N1CCOCC1)c1ccc(OC)cc1 | inactive: -2.74%
CC(C)=N/N=C(\N)N[N+](=O)[O-] | inactive: 2.72%
CN(C)C(=O)OCCc1n(C)cc[n+]1C | inactive: -0.0759%
CC1CCN(C(=O)Oc2c(Cl)cc(Cl)c3cccnc23)CC1 | inactive: 5.34%
COc1ccc(C2=NCC(CBr)S2)cc1 (stereo not given) | inactive: -1.56%
O=[N+]([O-])c1cccc2n[nH]nc12 | inactive: 3.5%
CC(=O)N1C2C3N(C(C)=O)C1C1N(C(C)=O)C(C(N1C(C)=O)N3C(C)=O)N2C(C)=O | inactive: 0.931%
Cc1ccc(NP(=O)(Oc2ccccc2)Oc2ccccc2)nc1 | inactive: 0.935%
CCc1nc2c(n1)c1c(non1O)c1c2no[n+]1[O-] | inactive: -0.364%
O=[N+]([O-])c1cc([N+](=O)[O-])c(CCNc2ccccc2)c([N+](=O)[O-])c1 | inactive: 1.75%
CC(C)(C)C(=O)NC(Sc1ccncn1)C(Cl)(Cl)Cl (stereo not given) | inactive: 0.464%
O=[N+]([O-])c1ncn(CCn2ncnc2[N+](=O)[O-])n1 | inactive: 0.997%
O=[N+]([O-])c1cccc(NC2=NCC(CBr)S2)c1 (stereo not given) | inactive: 1.61%
O=C(O)CNc1ccc([As](=O)(O)O)cc1 | inactive: 10.4%
O=C(Nc1cc([As](=O)(O)O)ccc1O)c1ccccc1 | inactive: 1.65%
O=[N+]([O-])c1cc([N+](=O)[O-])c(CCN2CCOCC2)c([N+](=O)[O-])c1 | inactive: 8.65%
CCN(N=Nc1nonc1N)c1nonc1N | inactive: 4.52%
Nc1cccc2ccc([As](=O)(O)O)cc12 | inactive: -4.08%
O=C(O)c1ccccc1[As](=O)(O)O | inactive: -0.55%
CC(=O)Nc1ccc([As](=O)(O)O)cc1 | inactive: 0.491%
O=P(Nc1nc2ccc(Cl)cc2s1)(c1ccccc1)c1ccccc1 | inactive: -1.63%
CCOP(=O)(Nc1ccccc1)OCC | inactive: 3.97%
Cc1cc(SC(NC(=O)c2ccc(F)cc2)C(Cl)(Cl)Cl)ncn1 (stereo not given) | inactive: 3.44%

Structure (SMILES) | inhibition
Cc1ccc(NP(=O)(Oc2ccccc2F)Oc2ccccc2F)nc1 | inactive: -0.9%
CN(C(=O)Cc1ccc(Cl)c(Cl)c1)[C@H]1CCCC[C@@H]1N1CCCC1 | inactive: -4.89%
CC(C)CC(=O)NC(Sc1ccc(Cl)cc1)C(Cl)(Cl)Cl (stereo not given) | inactive: -3.14%
Nc1cc(N)c2nonc2c1[N+](=O)[O-] | inactive: -0.604%
Oc1ccccc1CNc1ccccn1 | inactive: -2.79%
Cc1c2non([O-])c-2c(C)[n+](=O)[n+]1[O-] | inactive: 3.53%
O=C(NC(Sc1ccncn1)C(Cl)(Cl)Cl)c1ccccc1 (stereo not given) | inactive: -1.26%
NC(=O)c1cc([N+](=O)[O-])cc([N+](=O)[O-])c1N | inactive: 7.17%
CN(C(=O)Cc1ccc(Cl)c(Cl)c1)[C@H]1CCCC[C@H]1N1CCCC1 | inactive: 3.03%
Cc1ccc(N/C(=N/P(=O)(N2CCOCC2)N2CCOCC2)N2CCOCC2)cc1 | inactive: 6.2%
COc1ccccc1OP(=O)(Nc1ccc(C)cn1)Oc1ccccc1OC | inactive: 1.77%
Cc1ccc(OP(=O)(Nc2nccs2)Oc2ccc(C)cc2)cc1 | inactive: 0.861%
Clc1ccc(Cl)c(NC2=NCC(CBr)S2)c1 (stereo not given) | inactive: 1.25%
CN1CCCC(OC(=O)C(c2ccccc2)c2ccccc2)C1 (stereo not given) | inactive: 0.89%
C[C@@H]1C=CCP(=O)(Oc2ccccc2)O1 (stereo not given in full) | inactive: -4.01%
C[C@H]1OP(=O)(Oc2ccccc2)C[C@@H]2O[C@@H]21 (stereo not given in full) | inactive: -2.87%
CC(=O)Nc1ccc([As](=O)(O)O)c(O)c1 | inactive: -2.62%
CC(=O)Nc1ccc(Oc2c([N+](=O)[O-])cc([N+](=O)[O-])cc2[N+](=O)[O-])cc1 | inactive: 3.25%
O=P1(Nc2nc3ccc(Cl)cc3s2)COc2ccccc2O1 (stereo not given) | inactive: 0.0115%
CCOc1ccc(C2=NCC(CBr)S2)cc1 (stereo not given) | inactive: -2.92%
CC(C)(C)C(=O)NC(Sc1ccccc1)C(Cl)(Cl)Cl (stereo not given) | inactive: 9.29%
COC(=O)c1cc2c(s1)N=C(c1ccccc1)N(C)P2(=O)N1CCOCC1 (stereo not given) | inactive: 3.82%
Cc1ccc(OP(=O)(Nc2ccccn2)Oc2ccc(C)cc2)cc1 | inactive: 1.79%
CC(=O)NC(SC(=S)N(CC(C)C)CC(C)C)C(Cl)(Cl)Cl (stereo not given) | inactive: 6.89%
O=C(OC1CN2CCC1CC2)c1ccccc1 (stereo not given) | inactive: -0.53%

Structure (SMILES) | inhibition
CCC(=O)N1C2C3N(C(=O)CC)C1C1N(C(=O)CC)C(C(N1C(=O)CC)N3C(=O)CC)N2C(=O)CC | inactive: 0.1%
Cc1ccccc1OP(=O)(Nc1ccccn1)Oc1ccccc1C | inactive: -0.294%
CC(NC(=O)COC(=O)C(O)(c1ccccc1)c1ccccc1)c1ccccc1 (stereo not given) | inactive: -2.15%
CN(C)C(=O)Oc1noc2ccccc12 | inactive: 3.02%
CCNC(=S)/N=C(\N)N[N+](=O)[O-] | inactive: 7.59%
O=C(NC1CCS(=O)(=O)C1)NP(=S)(Oc1ccccc1)Oc1ccccc1 (stereo not given) | inactive: -2.18%
c1ccc(-c2nn[nH]n2)c(-c2nn[nH]n2)c1 | inactive: 3.28%
CCOC(=O)NC(Sc1ccccc1)C(Cl)(Cl)Cl (stereo not given) | inactive: -3.32%
Cc1ccc(NP(=O)(Oc2cccc(C)c2)Oc2cccc(C)c2)nc1 | inactive: -4.19%
O=[N+]([O-])c1ccc(O)c(/C=N/Nc2ccc([N+](=O)[O-])cc2[N+](=O)[O-])c1 | inactive: -5.57%
O=[N+]([O-])c1ncn(CCn2cnc([N+](=O)[O-])n2)n1 | inactive: -4.34%
CC(=O)NC(SC(=S)N(C)C)C(Cl)(Cl)Cl (stereo not given) | inactive: 3.66%
O=[As](O)(c1ccccc1)c1ccc(O)cc1 | inactive: 2.49%
Nc1ccc([As](=O)(O)c2ccc([N+](=O)[O-])cc2)cc1 | inactive: -2.23%
C(Cc1nn[nH]n1)Cc1nn[nH]n1 | inactive: 5.18%
O=C(OC1CN2CCC1CC2)c1cccc(Cl)c1 (stereo not given) | inactive: 1.1%
O=P(Nc1ccccn1)(c1ccc(Br)cc1)c1ccc(Br)cc1 | inactive: 0.345%
CN(C)C1(CNC(=O)c2ccc(Cl)c(S(N)(=O)=O)c2)CCCCC1 | inactive: 3.46%
C[C@H]1OP(=O)(Oc2ccccc2)[C@H](O)[C@H](O)[C@H]1N=[N+]=[N-] (stereo not given in full) | inactive: 6.53%
CC(C)C(=O)NC(Sc1ccccc1)C(Cl)(Cl)Cl (stereo not given) | inactive: -3.79%
O=P(Nc1nccs1)(c1ccccc1)c1ccccc1 | inactive: -5.53%
c1nnnn1CCn1cnnn1 | inactive: -2.6%
COc1ccccc1CNC(=O)COC(=O)C(O)(c1ccccc1)c1ccccc1 | inactive: -8.31%
CC1(CBr)Cn2c(nc3ccccc3c2=O)S1 (stereo not given) | inactive: 6.19%
CC(C)/C=N\N=C(\N)N[N+](=O)[O-] | inactive: -1.42%

Structure (SMILES) | inhibition
CN(C(=O)Cc1ccc(Cl)c(Cl)c1)[C@@H]1CCCC[C@H]1N1CCCC1 | inactive: -1.89%
CN(CCCl)Cc1cc(Cl)c(NC2=NCCN2)c(Cl)c1 | inactive: -5.49%
CCOP(=O)(Nc1ccc(C)cn1)OCC | inactive: 1.97%
O=P1(Nc2ccccn2)COc2ccccc2OC1 | inactive: -4%
CCC1=CC2Cc3nc4ccc(Cl)cc4c(N)c3C(C1)C2 (stereo not given) | inactive: 2.79%
CCOP(=O)(NC(=NC(C)c1ccccc1)NC(C)c1ccccc1)OCC (stereo not given) | inactive: -2.52%
Clc1n[nH]nc1-c1nn[nH][15n]1 | inactive: 0.891%
O=P1(Nc2ncccn2)COc2ccccc2OC1 | inactive: -0.72%
O=P1(Nc2ccc(Br)cn2)COc2ccccc2OC1 | inactive: -1.35%
NS(=O)(=O)c1cccc(NC(=O)COC(=O)C(O)(c2ccccc2)c2ccccc2)c1 | inactive: 3.58%
O=[As](O)(c1cccs1)c1cccs1 | inactive: 0.313%
Cc1ccc(OCC(=O)OC2CN3CCC2CC3)cc1 (stereo not given) | inactive: -0.776%
Nc1cccc([As](=O)(O)c2ccccc2)c1 | inactive: -2.62%
Cc1nn(-c2ccccc2)c2c1P(=O)(N1CCOCC1)N(C)C(c1ccccc1)=N2 (stereo not given) | inactive: 9.53%
CC1CCC(C(C)C)C(OP(=O)(Nc2ccccn2)c2ccccc2)C1 (stereo not given) | inactive: 15.8%
Cc1ccc(C(=O)OC2CN3CCC2CC3)cc1 (stereo not given) | inactive: -3.8%
O=C(/C=C/c1ccccc1)OC1CN2CCC1CC2 (stereo not given) | inactive: -2.06%
CN(C)C1(CNC(=O)c2ccc(S(C)(=O)=O)cc2)CCCCC1 | inactive: -10.8%
NC(=O)Nc1ccc([As](=O)(O)O)cc1 | inactive: -7.2%
CN(C)C(=O)c1cc([N+](=O)[O-])cc2c1-c1c(cc([N+](=O)[O-])cc1[N+](=O)[O-])C2=O | inactive: -2.2%
O=[N+]([O-])c1ccc2c(c1)nnn2O | inactive: -1.38%
CN(C(=O)Cc1ccc(Cl)c(Cl)c1)[C@H]1CC[C@@]2(CCCO2)C[C@@H]1N1CCCC1 | inactive: -0.831%
N#CCCN(C(=O)COC(=O)C(O)(c1ccccc1)c1ccccc1)c1ccc(F)cc1 | inactive: 4.9%
CN(C(=O)Cc1ccccc1)[C@@H]1CC[C@]2(CCCO2)C[C@H]1N1CCCC1 | inactive: 2.76%
CCOP1(=S)c2c(C)nn(CCC#N)c2N=C(c2ccc(F)cc2)N1C (stereo not given) | inactive: -0.165%
